Each structure is given as a SMILES string.

The text below walks through data of patent publication US20210315886A1, “IMIDAZOTETRAZINE COMPOUNDS” (The Board of Trustees of the University of Illinois, priority 2018, published 2021).

For the assay, the system named is panel of human GBM cell lines. The assay is described as follows: Anticancer activity against panel of human GBM cell lines. The format is cell-based. To be noted: U118MG and T98G MGMT-expressing GBM cells. On the procedure:
Anticancer activity of C8 substituted imidazotetrazines. With a suite of imidazotetrazines in hand, each compound was evaluated against a panel of human GBM cell lines (Table 1a, Table 1b).
For `Cn1nnc2c(-c3ccccc3)ncn2c1=O` [Compound 23, 3-methyl-8-phenylimidazo[5,1-d][1,2,3,5]tetrazin-4(3H)-one], the “activity relative to TMZ in MGMT-expressing cell lines” value was “significantly more potent”.
Next, `Cc1cnc(-c2ncn3c(=O)n(C)nnc23)o1` [Compound 27, 3-methyl-8-(5-methyloxazol-2-yl)imidazo[5,1-d][1,2,3,5]tetrazin-4(3H)-one]: “significantly more potent”; `Cn1nnc2c(Cl)ncn2c1=O` [Compound 19, 8-chloro-3-methylimidazo[5,1-d][1,2,3,5]tetrazin-4(3H)-one]: “significantly more potent”.
Next, `Cc1ncn2c(=O)n(C)nnc12` [Compound 14, 3,8-dimethylimidazo[5,1-d][1,2,3,5]tetrazin-4(3H)-one]: “significantly more potent”.
